In patent publication US7071194B2, “Method for improving respiratory function and inhibiting muscular degeneration” (priority 2000, dated 2006):

Test system: T8 SCI rats
Assay: Respiratory function by head-out plethysmograph in conscious rats after T8 contusion SCI
Assay type: in vivo, rat
Conditions: 8-OH-DPAT 250 μg/kg i.p.
Protocol: Female Sprague-Dawley rats (250–280 g and 360–390 g; Taconic, Germantown, N.Y.) were anesthetized with 4% chloral hydrate (360 mg/kg, i.p.). An incomplete spinal courd contusion injury was produced at T8 with a weight drop device (10 g×2.5 cm) as previously described (Wrathall et al., 1985). After SCI, manual expression of bladders was performed twice daily until a reflex bladder was established. Animal care also included housing the rats in pairs to reduce isolation-induced stress, maintaining ambient temperature at 22–25° C., and using highly absorbent bedding. No prophylactic antibiotics were given.
Experiments were conducted in unanesthetized, awake, spontaneously breathing rats at 24 hours prior to SCI, at 24 hours p.i. and weekly afterwards at 1,2,3, and 4 weeks p.i. (1) Acclimatization of the Animals. […] Animals were placed in the body cylinder of the plethysmograph (FIG. 1a) for 60 minutes per day for at least 5 days. […] (2) Non-Invasive Measurements of Respiratory Rate, Tidal Volume and Minute Ventilation. Non-invasive measurements of respiratory function in conscious rats were performed with a restrained head-out plethysmograph specially designed for rodents (BUXCO Electronics, Inc., Sharon, Conn.) (FIG. 1a). The plethymograph apparatus has a neck seal that prevents leakage of air from between the animal's neck and the plethymograph opening. Displacement of the thoracic wall produced by the animal's respiratory movements causes changes in the cylinder pressure, which results in air flowing across a pneumotachograph located on the wall of the cylinder. The pressure drop across the pneumotachograph is measured with a pressure transducer and is proportional to the flow. This signal is amplified and integrated into volume. […]
Baseline respiratory function was measured under room air ventilation and after the animal was stabilized inside a boy cylinder (FIGS. 1a and b) for 30 minutes at each time point prior to SCI and after injury. […]

SMILES: CCCN(CCC)C1CCc2cccc(O)c2C1 (stereo not drawn) [8-OH-DPAT, 8-hydroxy-2-(di-n-propylamino)tetralin]
- impaired ventilatory response to 7% CO2 (24 hours and 7 days after SCI): normalized
- baseline Ve at 4 minutes post drug injection (FIG. 3) (24 hours p.i., n=3): significantly improved
- ventilatory response to 7% CO2 at 5 hours after drug injection vs before treatment (24 hours p.i., time-course study): slightly and not significantly higher
